# Target: T1, soluble human FcRn (Homo sapiens, UniProt P55899)
# The chains behind the UniProt entries cited, without tags or fusion partners. Residues count along the entry.
# UniProt P55899, 24-297 limits assumed: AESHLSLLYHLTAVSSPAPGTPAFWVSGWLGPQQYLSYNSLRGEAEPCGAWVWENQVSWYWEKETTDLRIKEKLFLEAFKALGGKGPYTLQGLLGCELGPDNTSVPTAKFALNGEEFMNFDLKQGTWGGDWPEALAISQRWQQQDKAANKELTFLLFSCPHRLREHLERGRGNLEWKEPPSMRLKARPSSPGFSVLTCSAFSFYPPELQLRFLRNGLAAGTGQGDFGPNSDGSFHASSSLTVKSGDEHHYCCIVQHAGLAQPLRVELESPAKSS
# T1 construct: encoding the extracellular part of the human FcRn α-chain (nucleotides 70-1095); made in house; host or cells: HEK 293F (transient, PIGG vector), purified on immobilized Fc-stop
# Assay: ELISA binding of Rituximab conjugates to soluble human FcRn
# Conditions: 8 μg/mL
# Protocol: Soluble human FcRn was engineered and expressed as described above. Briefly, both cDNA sequences of the heterodimeric human FcRn, α-chain and β2 microglobulin, were cloned into the bidirectional CMV promoter cassette of the PIGG vector. Transient transfection of the soluble human FcRn expression vector into HEK 293F cells, culturing of the cells, and concentration of the supernatant were carried out as described for Rituximab expression. The concentrated supernatant was subsequently brought into acidic PBS (pH 6.0). For purification, Fc-stop protein was immobilized to an NHS HiTrap column (GE Healthcare) using the manufacturer's protocol. After loading the concentrated supernatant in acidic PBS (pH 6.0), the column was washed with 30 mL acidic PBS (pH 6.0), and bound soluble human FcRn was eluted with neutral PBS (pH 7.4).
# To analyze and compare the binding of Rituximab and specifically conjugated Rituximab-Sec-His to commercially available soluble human FcγRI, FcγRIIA, and FcγRIIIA (all from R&D Systems) as well as to soluble human FcRn, 500 ng of each Fc receptor was coated and blocked on a 96-well plate as described above. […]
substance,measurement,setting,value
Rituximab-Sec-His/fluorescein: Rituximab-Sec-His conjugated at Sec to fluorescein-5-maleimide (FITC derivative with maleimide moiety),binding to immobilized human FcRn at pH 6.0,acidic PBS pH 6.0,detectable at pH 6.0
same,binding to immobilized human FcRn at pH 7.4,neutral PBS pH 7.4,not at pH 7.4

# — US8916159B2, “Selenocysteine mediated hybrid antibody molecules” (The United States of America, as represented by the …, priority 2007, dated 2014)
